{"source": "paper PMC7064328", "about": "“Evaluation of Maternal, Embryo, and Placental Effects in CD-1 Mice following Gestational Exposure to Perfluorooctanoic Acid (PFOA) or Hexafluoropropylene Oxide Dimer Acid (HFPO-DA or GenX)” (Environmental Health Perspectives, 2020)", "key": {"[1]": {"system": "placenta", "experiment": "Placental thyroid hormone quantification (HPLC-MS/MS)", "type": "in vivo, mouse (CD-1)", "conditions": "E17.5", "method": "Thyroid hormones (T3, triiodothyronine; T4, thyroxine; rT3, reverse triiodothyronine) in placenta were analyzed according to the methods described in Leonetti et al. ([2016]). Briefly, ∼300mg ( 207–526mg ) of two to three pooled placental tissues of same-sex embryos was homogenized and digested for 16 h overnight in PRONASE® Protease (Streptomyces griseus) solution (EMD Millipore Corp.). Each pooled sample of two to three placentas was considered as one biological replicate and included placentas from the same litter when possible. Three biological replicates were used for each treatment group and each sex. Samples were spiked with an antioxidant solution (containing 37.5mg/mL each of citric acid, ascorbic acid, and dithiothreitol) and C13 isotopically labeled internal standards (T4, T3, and rT3), and cold acetone was added to stop the digestion reaction. Samples were vortex mixed and centrifuged three times for 2 min at 10,000 relative centrifugal force (rcf), and the supernatants were collected and combined. Sample pH was adjusted with 6M hydrochloric acid to pH<2 . A liquid–liquid extraction with cyclopentane was performed and the cyclopentane layer discarded; briefly, 1mL of cyclopentane was added to the supernatant and vortexed before the sample was centrifuged for 3 min at 3,000 rcf and the cyclopentane layer discarded, and this was repeated three times. A liquid–liquid extraction with ethyl acetate was performed; briefly, 3mL of ethyl acetate was added to the extract and vortexed before being shaken on a plate shaker for 30 min and centrifuged for 3 min at 3,000 rcf, and the ethyl acetate layer collected; this was repeated three times. Ethyl acetate extracts were dried down to 50μL under a gentle nitrogen stream and resuspended in 1mL of 0.01M hydrochloric acid in 10% methanol. Samples were purified by solid-phase extraction using SampliQ Optimized Polymer Technology (OPT) cartridges ( 3mL , 50mg; Agilent Technologies). Final extracts in 400μL of 1:1 methanol:water were filtered using Whatman® Mini-UniPrep® Syringeless Filters [Polytetrafluoroethylene (PTFE), 0.2μm; GE Healthcare]. Extracts were analyzed on an Agilent high-performance liquid chromatography (HPLC) 1260 with a Synergi™ 50mm×2mm Polar-RP column ( 2.5μm; Phenomenex) coupled to an Agilent model 6460 tandem mass spectrometer with electrospray ionization (HPLC-MS/MS-ESI). Mobile phases consisted of 10 mM formic acid in methanol and 10 mM formic acid in water. Laboratory processing blanks were extracted alongside the placental tissues to monitor background levels. No TH were detected in the lab blanks. Method detection limits (MDLs) were calculated using a signal-to-noise value of 3 for each analyte (T3, T4, and rT3). Values were normalized to the wet weight of placenta extracted for a final value of nanogram hormone/gram placenta. Values below the MDL (T4, 0.84 ng/g; T3, 0.42 ng/g; rT3, 0.67 ng/g ) were imputed using the calculation MDL×0.5 , and values lacking a quantifiable peak on mass spectrometry were excluded from the analysis.\nTH concentrations in the placenta were quantified, and the ratios of T3:T4 and rT3:T4 in E17.5 placentas were assessed to evaluate potential disruption of peripheral TH control (e.g., impacts on thyroid deiodinase activity). Each end point was analyzed for sex×treatment interaction or for an overall effect of sex. Placenta TH were analyzed by analysis of variance using lme4 ([Bates et al. 2014]). Simultaneous tests for general linear hypotheses were corrected for multiple comparisons of means using Tukey contrasts in the package multcomp ([Hothorn et al. 2009]). Placental TH and their ratios were initially analyzed with embryo sex as an interaction term in the model, with the dose group as the predictor variable. Inclusion of a sex interaction or sex covariate in the final model was examined in a stepwise fashion. Internal dosimetry data were analyzed by analysis of variance. […]"}, "[2]": {"system": "Pregnant CD-1 mice", "experiment": "Clinical chemistry of dam serum and urine", "type": "in vivo, mouse (CD-1)", "conditions": "10 mg/kg/d", "method": "Dam livers, kidneys, and placentas were trimmed and embedded by the NIEHS Mouse Embryo Phenotyping Core. Tissues collected at necropsy were fixed in 4% PFA for 72 h and paraffin embedded, and 5-μm sections were prepared and stained with hematoxylin and eosin (H&E). Pathology was evaluated and a pathology review conducted by S.A.E. Diplomate American College of Veterinary Pathologists (DACVP). Pathology reviews were conducted as an informed approach analysis [e.g., nonblinded analysis; see Sills et al. ([2019])]. Select tissue slides were scanned using the AT2 Scanner (Aperio). Images were then captured for publication using the ImageScope software; version 12.3.0.5056 (Aperio). Serum and urine obtained from dams in Block 2 were analyzed using the AU480 clinical chemistry analyzer (Beckman Coulter Inc.). Reagents and calibration standards used to measure alkaline phosphatase (ALP), alanine aminotransferase (ALT), aspartate aminotransferase (AST), blood urea nitrogen (BUN), serum creatinine, urine creatinine, glucose (Glu), total protein (TP), triglyceride (Trig), high-density lipoprotein (HDL), cholesterol (Chol), and albumin (ALB) were purchased from Beckman Coulter Inc. Reagents for sorbitol dehydrogenase (SDH), total bile acid (TBA), and micro-TP were purchased from Sekisui Diagnostics. The reagent used to measure low-density lipoprotein (LDL) was purchased form Diazyme Laboratories."}, "[3]": {"system": "rats", "conditions": "gestational exposure; ref Conley et al. 2019; cited from earlier work"}}}
{"smiles": "N.O=C(O)C(F)(OC(F)(F)C(F)(F)C(F)(F)F)C(F)(F)F", "note": "(centres unmarked) [GenX, ammonium 2,3,3,3-tetrafluoro-2-(heptafluoropropoxy)propanoate]", "values": [{"measurement": "Placental T3:T4 ratio", "setting": "[1]; 2 mg/kg/d", "result": "0.05±0.01 [5]"}, {"measurement": "Placental rT3:T4 ratio", "setting": "[1]; 2 mg/kg/d", "result": "0.32±0.12 [6]"}, {"measurement": "Placental T4 increase relative to controls", "setting": "[1]; 2 mg/kg/d, attenuated after post hoc correction", "result": 38, "unit": "%"}, {"measurement": "Placental T3:T4 ratio", "setting": "[1]; 10 mg/kg/d", "result": "0.03±0.01 [6]"}, {"measurement": "Placental T4 increase relative to controls", "setting": "[1]; 10 mg/kg/d", "result": 60, "unit": "%"}, {"measurement": "Placental rT3:T4 ratio", "setting": "[1]; 10 mg/kg/d", "result": "0.27±0.08 [6]"}, {"measurement": "Placental T3:T4 ratio", "setting": "[1]; female, 2 mg/kg/d", "result": "0.053 ± 0.02"}, {"measurement": "Placental rT3:T4 ratio", "setting": "[1]; female, 2 mg/kg/d", "result": "0.409 ± 0.08"}, {"measurement": "Placental T3:T4 ratio", "setting": "[1]; female, 10 mg/kg/d", "result": "0.032 ± 0.01"}, {"measurement": "Placental rT3:T4 ratio", "setting": "[1]; female, 10 mg/kg/d", "result": "0.302 ± 0.09"}, {"measurement": "Placental T3:T4 ratio", "setting": "[1]; male, 2 mg/kg/d", "result": "0.044 ± 0.01"}, {"measurement": "Placental rT3:T4 ratio", "setting": "[1]; male, 2 mg/kg/d", "result": "0.225 ± 0.08"}, {"measurement": "Placental T3:T4 ratio", "setting": "[1]; male, 10 mg/kg/d", "result": "0.035 ± 0.004"}, {"measurement": "Placental rT3:T4 ratio", "setting": "[1]; male, 10 mg/kg/d", "result": "0.231 ± 0.04"}, {"measurement": "Serum Glu lower relative to controls", "setting": "[2]; E11.5, p=0.20", "result": 18, "unit": "%"}, {"measurement": "ALT increase relative to controls", "setting": "[2]; Table 2 (E11.5), not statistically significant", "result": 200, "unit": "%"}, {"measurement": "LOAEL, up-regulated gene expression in PPAR signaling pathways in maternal and embryo liver", "setting": "[3]", "result": 1, "unit": "mg/kg/day"}]}
